From paper PMC9469185, “Cannabinoid Receptors and Glial Response Following a Basal Forebrain Cholinergic Lesion” (ACS Pharmacology & Translational Science, 2022)

The chains behind the UniProt entries cited, without tags or fusion partners. Where a name states a change or a piece, a line headed by the entry shows the natural chain unless it says otherwise.
UniProt P47936: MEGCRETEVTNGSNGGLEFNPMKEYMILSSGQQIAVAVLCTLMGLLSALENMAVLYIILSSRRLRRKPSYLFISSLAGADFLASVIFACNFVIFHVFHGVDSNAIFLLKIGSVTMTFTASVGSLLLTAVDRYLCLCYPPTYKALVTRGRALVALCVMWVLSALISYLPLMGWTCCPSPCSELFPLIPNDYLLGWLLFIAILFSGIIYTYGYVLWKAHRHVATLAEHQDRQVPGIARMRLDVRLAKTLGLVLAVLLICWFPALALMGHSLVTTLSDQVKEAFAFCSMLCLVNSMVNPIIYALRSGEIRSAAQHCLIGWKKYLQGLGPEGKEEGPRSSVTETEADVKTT

Target: T1, CB2 (CB1-/- mouse spleen membranes) (Mus musculus, UniProt P47936)
T1 construct: gene Cnr2; native receptor in spleen membranes of CB1 knockout mice
Assay: [3H]CP55, […] displacement, filtration
Format: binding
Conditions: 0.5 nM radioligand, 2 h, 37 °C, pH 7.4

Cc1ccc(Cn2nc(C(=O)N[C@@H]3C(C)(C)[C@@H]4CC[C@@]3(C)C4)cc2-c2ccc(Cl)c(C)c2)cc1 [SR144528]
Ki: 10^-10.1 M
